Ab-14 light chain CDR variants: yeast mating affinities

Values reported by Li et al. 2023, doi:10.1038/s41467-023-39022-2 (FLAb copy).

All variants were tested on one target, the spike HR2 peptide PDVDLGDISGINAS (SARS-CoV-2).

Parent scFv Ab-14: VH joined to VL by three GGGGS repeats. Changes lie in the light chain CDRs alone.
VH: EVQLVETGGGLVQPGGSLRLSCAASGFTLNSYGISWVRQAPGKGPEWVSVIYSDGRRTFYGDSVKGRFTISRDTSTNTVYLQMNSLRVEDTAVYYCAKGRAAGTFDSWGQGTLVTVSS
VL: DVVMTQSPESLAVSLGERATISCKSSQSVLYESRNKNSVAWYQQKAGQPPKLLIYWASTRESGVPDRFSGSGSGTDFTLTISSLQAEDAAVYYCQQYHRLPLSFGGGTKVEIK

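The variants were designed computationally from a first round of random CDR variants and then made and measured. Their group label is 14L_En_Gen (En: ensemble of fine-tuned language models; Gen: genetic algorithm). In AlphaSeq, yeast of one mating type display the scFv and yeast of the other type display the target. Mating (16 h, 30 °C) was followed by selection of diploids and sequencing of their barcodes. Read counts were normalised to the haploid input and turned into Kd by a linear fit to BCL2-family pairs of known affinity, for each replicate. The assay was run in six technical replicates.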

Sequences are complete VL domains.
Values are log10 of the apparent Kd in nM; lower means stronger binding.
"n.d." means that the variant was in the library but no mating with the target was seen in that replicate; the authors take this as a sign of poor binding, and no number exists.
The authors' rule: three or more of the six replicates give a measured affinity, fewer mean a poor binder.

VL | log10 Kd (nM) by replicate | control signals
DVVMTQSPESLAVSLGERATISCMMSQVWGSGTRHRNNVAWYQQKAGQPPKLLIYQTSMREPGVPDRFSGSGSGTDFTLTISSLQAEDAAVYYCQQYDRLPLIFGGGTKVEIK | 1.12 1.09 1.22 0.78 1.28 1.16 | 0 of 18
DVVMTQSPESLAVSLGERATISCTLYGLSMSMSKQKNNVAWYQQKAGQPPKLLIYEMSTRENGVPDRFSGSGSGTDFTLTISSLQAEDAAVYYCQQYDRLPLIFGGGTKVEIK | 0.66 0.46 0.39 0.40 0.65 0.65 | 1 of 18 (3.10)
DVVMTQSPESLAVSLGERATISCKLGETYEGEKKQRNSVAWYQQKAGQPPKLLIYHNTMRENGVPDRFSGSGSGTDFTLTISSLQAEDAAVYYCQQYDRLPLEFGGGTKVEIK | 2.25 n.d. 1.77 1.78 3.18 n.d. | 1 of 18 (2.77)
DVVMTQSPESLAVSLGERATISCKISMLINQTFEQSNNVAWYQQKAGQPPKLLIYEMATREKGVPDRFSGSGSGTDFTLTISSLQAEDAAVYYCQQYNRLPLSFGGGTKVEIK | 1.19 1.07 0.94 0.61 1.07 1.21 | 1 of 18 (2.61)
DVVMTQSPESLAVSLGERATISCTISQMSTLFSQSINNVAWYQQKAGQPPKLLIYEVSTRIEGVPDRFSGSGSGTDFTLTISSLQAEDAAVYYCQQYDRLPLVFGGGTKVEIK | 1.18 0.56 0.21 0.47 1.02 0.53 | 0 of 18
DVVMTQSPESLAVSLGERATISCHMSFLTLQGQRHRNAVAWYQQKAGQPPKLLIYQMTTRENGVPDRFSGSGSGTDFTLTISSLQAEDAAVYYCQQYDRLPLIFGGGTKVEIK | 1.50 1.32 1.69 0.97 1.18 1.94 | 1 of 18 (2.73)
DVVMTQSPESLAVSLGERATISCKISMLLNMTFNQSNNVAWYQQKAGQPPKLLIYEMATREKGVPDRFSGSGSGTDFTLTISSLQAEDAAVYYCQQYNRLPLSFGGGTKVEIK | 2.06 1.36 0.68 1.21 1.53 1.36 | 1 of 18 (2.23)
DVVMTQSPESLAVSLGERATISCTISGVMMQLSHSKNNVAWYQQKAGQPPKLLIYEVSMRLEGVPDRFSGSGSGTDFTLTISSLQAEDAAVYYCQQYVRLPLAFGGGTKVEIK | 0.89 1.43 1.08 1.98 1.28 1.16 | 0 of 18
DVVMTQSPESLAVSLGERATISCKIGDTLNQLMHKKNNVAWYQQKAGQPPKLLIYDLVMRENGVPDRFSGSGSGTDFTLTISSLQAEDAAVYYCQQYFRLPLSFGGGTKVEIK | 0.41 0.17 0.24 0.06 0.18 0.48 | 0 of 18
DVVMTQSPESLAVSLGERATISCKISMLSENQLKNRNSVAWYQQKAGQPPKLLIYELVTRMSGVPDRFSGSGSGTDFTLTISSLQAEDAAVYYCQQYNRLPLSFGGGTKVEIK | 1.87 1.73 3.84 1.32 1.72 2.50 | 0 of 18
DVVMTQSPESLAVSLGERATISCKISQMVRVGATHGNSIAWYQQKAGQPPKLLIYEEATRAKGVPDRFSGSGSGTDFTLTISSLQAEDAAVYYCQQYHRLPLAFGGGTKVEIK | 1.97 1.18 1.10 2.47 1.81 1.87 | 1 of 18 (1.30)
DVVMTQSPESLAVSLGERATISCNISHFMDVTAKNINNVAWYQQKAGQPPKLLIYEMTMREMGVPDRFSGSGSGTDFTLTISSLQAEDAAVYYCQQYHHLPLSFGGGTKVEIK | 0.74 0.42 0.36 0.56 0.16 0.51 | 0 of 18
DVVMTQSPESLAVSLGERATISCMISQLFNMGSFAINSVAWYQQKAGQPPKLLIYQASTRNEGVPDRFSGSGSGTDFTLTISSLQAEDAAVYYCQQYDRLPLIFGGGTKVEIK | 1.08 0.82 1.59 1.16 1.03 1.22 | 0 of 18
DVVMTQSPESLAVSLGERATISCMISQLMNMGQFAINSVAWYQQKAGQPPKLLIYQASLRNDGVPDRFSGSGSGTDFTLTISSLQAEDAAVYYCQQYDRLPLMFGGGTKVEIK | 1.52 0.63 0.98 1.14 1.95 1.30 | 1 of 18 (3.37)
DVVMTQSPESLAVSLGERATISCTISQMSTLFAQSINNVAWYQQKAGQPPKLLIYEVSTRLNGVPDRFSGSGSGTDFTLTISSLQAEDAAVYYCQQYDRLPLAFGGGTKVEIK | 0.38 0.55 0.44 0.20 0.33 0.49 | 0 of 18
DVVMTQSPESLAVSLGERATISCMLSQMWGVGSKVSNSVAWYQQKAGQPPKLLIYQASMRFNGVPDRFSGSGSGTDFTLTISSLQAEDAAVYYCQQYHRLPLIFGGGTKVEIK | 2.01 1.21 0.80 0.73 1.22 1.12 | 0 of 18
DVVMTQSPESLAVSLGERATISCIVSQLMLWGWHAKNSIAWYQQKAGQPPKLLIYEAQTRINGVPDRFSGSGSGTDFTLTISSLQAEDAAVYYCQQYDRLPLFFGGGTKVEIK | 2.70 n.d. n.d. n.d. n.d. n.d. | 0 of 18
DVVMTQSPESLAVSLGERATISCKVSEFMRGLLSKQDSIAWYQQKAGQPPKLLIYDNVTRNNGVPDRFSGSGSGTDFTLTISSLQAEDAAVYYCQQYDRLPLSFGGGTKVEIK | n.d. n.d. n.d. 3.35 n.d. 3.44 | 2 of 18 (3.05)
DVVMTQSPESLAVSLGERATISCMISQLYNMGQFIINSVAWYQQKAGQPPKLLIYQASLRCNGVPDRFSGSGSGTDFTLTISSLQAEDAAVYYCQQYDRLPLMFGGGTKVEIK | n.d. n.d. n.d. n.d. n.d. n.d. | 0 of 18
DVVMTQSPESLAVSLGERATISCKIGMTLNQLMHKKNNVAWYQQKAGQPPKLLIYDLVTREQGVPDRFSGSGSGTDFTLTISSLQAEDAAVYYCQQYFRLPLSFGGGTKVEIK | 0.86 0.12 0.75 0.34 0.54 0.31 | 1 of 18 (4.73)
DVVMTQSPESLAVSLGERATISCNISHFMDVTAKHNNNVAWYQQKAGQPPKLLIYEMTMREEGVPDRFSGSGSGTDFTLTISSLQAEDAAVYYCQQYHHLPLSFGGGTKVEIK | 1.37 1.65 1.14 1.34 0.80 1.23 | 1 of 18 (3.50)
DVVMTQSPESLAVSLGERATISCKLYEMLAVTMSHIRNVAWYQQKAGQPPKLLIYDNSTREAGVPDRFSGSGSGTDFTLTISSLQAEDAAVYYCQQYNRLPLSFGGGTKVEIK | n.d. n.d. n.d. n.d. n.d. n.d. | 0 of 18

Excerpt, the final 2 entries:

| VL | log10 Kd (nM) by replicate | control signals |
|---|---|---|
| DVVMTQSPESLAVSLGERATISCNISHFMDVTAKHNNNVAWYQQKAGQPPKLLIYEMTMREEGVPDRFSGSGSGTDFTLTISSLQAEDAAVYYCQQYHHLPLSFGGGTKVEIK | 1.37 1.65 1.14 1.34 0.80 1.23 | 1 of 18 (3.50) |
| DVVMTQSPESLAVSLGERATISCKLYEMLAVTMSHIRNVAWYQQKAGQPPKLLIYDNSTREAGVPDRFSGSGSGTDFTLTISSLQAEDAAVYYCQQYNRLPLSFGGGTKVEIK | n.d. n.d. n.d. n.d. n.d. n.d. | 0 of 18 |

Background: pairings of all light chain designs with three empty control strains gave a value in 4% of cases (median 2.64, 5th percentile 1.59). Values in that range, when seen in few replicates, are hard to tell from nonspecific mating. For each scFv, signals with the empty controls are counted beside the result, with their mean in brackets.
A sequence measured in both rounds can read differently, since the two assays cover different ranges.